Experimental findings from PubChem BioAssay AID797 (University of Pittsburgh Molecular Library Screening Center, 2007) are described below.

Amino acid sequences for entries named in this document (tags omitted).
UniProt Q15139, whole entry: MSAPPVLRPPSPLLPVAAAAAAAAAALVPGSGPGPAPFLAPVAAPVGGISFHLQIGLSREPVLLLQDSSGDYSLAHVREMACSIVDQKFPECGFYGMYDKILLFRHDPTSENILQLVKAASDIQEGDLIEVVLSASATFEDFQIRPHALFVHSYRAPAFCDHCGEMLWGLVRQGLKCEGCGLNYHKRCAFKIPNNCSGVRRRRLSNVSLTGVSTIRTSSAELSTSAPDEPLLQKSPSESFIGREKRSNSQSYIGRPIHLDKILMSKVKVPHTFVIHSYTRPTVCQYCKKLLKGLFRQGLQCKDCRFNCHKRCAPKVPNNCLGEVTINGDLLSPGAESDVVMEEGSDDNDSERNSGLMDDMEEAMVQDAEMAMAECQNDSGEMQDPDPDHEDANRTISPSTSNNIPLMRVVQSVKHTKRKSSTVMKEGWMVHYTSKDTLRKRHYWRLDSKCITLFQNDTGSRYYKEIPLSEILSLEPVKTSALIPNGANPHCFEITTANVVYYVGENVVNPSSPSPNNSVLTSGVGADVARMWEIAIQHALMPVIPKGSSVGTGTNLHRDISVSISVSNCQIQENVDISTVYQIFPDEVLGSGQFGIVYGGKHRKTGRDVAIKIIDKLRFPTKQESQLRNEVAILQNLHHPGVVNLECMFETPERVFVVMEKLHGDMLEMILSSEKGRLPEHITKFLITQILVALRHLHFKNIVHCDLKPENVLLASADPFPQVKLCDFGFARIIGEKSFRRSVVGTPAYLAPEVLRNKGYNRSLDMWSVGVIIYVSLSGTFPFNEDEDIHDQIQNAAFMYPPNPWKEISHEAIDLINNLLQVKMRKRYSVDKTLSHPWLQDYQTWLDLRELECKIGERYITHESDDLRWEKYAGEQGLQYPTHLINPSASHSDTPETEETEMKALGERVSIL

Structures are written as SMILES. Only a part is listed here, and it is no random draw. Active and inactive are the calls of the source. Cut-off read from the data, not from the text of the source: active = inhibition above about 50%; inactive = the rest.

This test deals with Serine/threonine-protein kinase D1 (Homo sapiens) (UniProt Q15139). Briefly: inhibitors of human PKD1 kinase, biochemical, fluorescence polarization (AID 797). The note with it: PKD1 kinase fluorescence polarization assay; active compounds read high; concentration not given here.
`CP(=S)(Nn1cnnc1)Oc1ccccc1` (stereo unspecified): the inhibition is inactive: 1.88%.

As for `CP(=O)(Nc1ccccc1Br)Oc1ccccc1` (stereo unspecified), the inhibition was inactive: 1.24%.

In the case of `COc1ccccc1OP(C)(=O)Nc1ccccc1` (stereo unspecified), the inhibition was inactive: -5.4%.

Take `O=P(Nc1ccccn1)(c1cccc2ccccc12)c1cccc2ccccc12`: the inhibition is inactive: 1.78%.

For `Cc1cc(SC(NC=O)C(Cl)(Cl)Cl)ncn1` (stereo unspecified), the inhibition is inactive: -4.7%.

In the case of `Cc1cc(SC(NC(=O)c2ccccc2)C(Cl)(Cl)Cl)nc(C(C)C)n1` (stereo unspecified), the inhibition was inactive: 2.98%.

As for `CCOC(=O)c1ccc(NP(C)(=O)Oc2ccc(OC)cc2)cc1` (stereo unspecified), the inhibition is inactive: 10.3%.

Consider `CCOP(C)(=S)SCC(=O)NC(C)C(=O)O` (stereo unspecified), for which the inhibition is inactive: -4.26%.

For the compound `CP(=O)(Nc1ccccn1)Oc1ccc(Cl)cc1` (stereo unspecified), the inhibition is inactive: -4.7%.

For the compound `CCC(C)N(CC(C)C)C(=S)SC(NC(C)=O)C(Cl)(Cl)Cl` (stereo unspecified), the inhibition is inactive: 0.95%.

Take `CP(=O)(Oc1ccccc1)OC(c1ccccc1)C(F)(F)F` (stereo unspecified): the inhibition is inactive: -0.76%.

Turning to `COP1(=S)c2c(C)nn(CCC#N)c2N=C(c2ccc(F)cc2)N1C` (stereo unspecified), the inhibition was inactive: -5.02%.

For `Cc1cccc(C)c1OP(C)(=O)Nc1ccc(SC(F)(F)F)cc1` (stereo unspecified), the inhibition was inactive: -4.35%.

With `Cc1cc(C)cc(OP(C)(=O)Nc2ccc(SC(F)(F)F)cc2)c1` (stereo unspecified), the inhibition was inactive: -10.9%.

For the compound `O=C(COc1ccccc1)OC1CN2CCC1CC2` (stereo unspecified), the inhibition is inactive: -0.91%.

As to `CP(=O)(NC(=O)Nc1ccccc1)Oc1ccccc1` (stereo unspecified), the inhibition was inactive: -14.3%.

Take `COc1ccc(N/C(=N/P(=O)(N2CCOCC2)N2CCOCC2)N2CCOCC2)cc1`: the inhibition was inactive: -0.54%.

Take `CCN(CC)CCCOC(=O)C(O)(c1ccccc1)c1ccccc1`: the inhibition is inactive: 9.21%.

`Cc1cc(=O)[nH]c(N[N+](=O)[O-])n1`: the inhibition was inactive: -3.83%.

On to `O=C(OC1CN2CCC1CC2)C12CC3CC(CC(C3)C1)C2` (stereo unspecified), for which the inhibition was inactive: 20.8%.

As for `Cc1c2c(nc3ccccc13)SC(C(Cl)Cl)C2` (stereo unspecified), the inhibition is inactive: -9.02%.

Regarding `COc1ccc2nc(NP(=O)(c3ccccc3)c3ccccc3)sc2c1`, the inhibition was inactive: -8.69%.

In the case of `Cc1ccc(NP(C)(=O)Oc2ccccc2)c(C)c1` (stereo unspecified), the inhibition was inactive: -12%.

Regarding `COc1ccccc1OP(C)(=O)Nc1ccc(C)cc1` (stereo unspecified), the inhibition is inactive: -9.68%.

Turning to `ClCCSc1nnc(-c2cccnc2)o1`, the inhibition is inactive: -9.63%.

As for `CCOC(=O)c1ccc(NP(C)(=O)Oc2ccccc2)cc1` (stereo unspecified), the inhibition was inactive: -8.42%.

Turning to `Cc1cc(C)cc(OP(C)(N)=O)c1` (stereo unspecified), the inhibition is inactive: -0.3%.

As for `COc1ccc(OP(C)(=O)Nc2cccc(F)c2)cc1` (stereo unspecified), the inhibition is inactive: -4.29%.

In the case of `O=[N+]([O-])c1cc([N+](=O)[O-])c(-c2ccn[nH]2)s1`, the inhibition is inactive: -1.39%.

With `COc1ccccc1OP(C)(=O)Nc1cc(Cl)ccc1C` (stereo unspecified), the inhibition is inactive: -7.92%.

`CC(C)NC(=O)NP(=O)(Oc1ccccc1)Oc1ccccc1`: the inhibition is inactive: 2.37%.

As to `CCN(CC)C(=S)SC(NC=O)C(Cl)(Cl)Cl` (stereo unspecified), the inhibition was inactive: 9.63%.

Consider `O=[N+]([O-])c1ccc2c(c1)C=Nc1ccccc1O2`, for which the inhibition is inactive: -1.87%.

As to `Cc1ccc2nc3c(c(C)c2c1)CC(C(Cl)Cl)S3` (stereo unspecified), the inhibition was inactive: -4.18%.

`Cc1cccc(C)c1OP(C)(N)=O` (stereo unspecified): the inhibition is inactive: -2.41%.

As for `CC(C)(C)c1ccc(OP(C)(=O)Nc2ccc(SC(F)(F)F)cc2)cc1` (stereo unspecified), the inhibition was inactive: 6.73%.

As to `CC1=NCCc2c1[nH]c1ccccc21.O=[N+]([O-])c1cc([N+](=O)[O-])c(O)c([N+](=O)[O-])c1`, the inhibition is inactive: -1.57%.

Take `O=[N+]([O-])c1ccc2c(c1)nnn2O`: the inhibition was inactive: 4.42%.

`CCOP1(=S)c2c(C)nn(CCC#N)c2N=C(c2ccc(F)cc2)N1C` (stereo unspecified): the inhibition was inactive: -2.7%.

Consider `O=P(Nc1nccs1)(Oc1ccccc1)Oc1ccccc1`, for which the inhibition is inactive: 1.41%.

`O=P(Nc1nccs1)(c1ccccc1)c1nc2ccccc2s1` (stereo unspecified): the inhibition was inactive: -11.4%.

Turning to `CCOP1(=S)c2c(C)nn(CCC#N)c2N=C(c2ccccc2F)N1C` (stereo unspecified), the inhibition is inactive: -10.5%.

Take `Cc1ccc(C)c(NP(C)(=O)Oc2ccccc2)c1` (stereo unspecified): the inhibition was inactive: -7.74%.

Take `Cc1ccc(NCCc2c([N+](=O)[O-])cc([N+](=O)[O-])cc2[N+](=O)[O-])cc1`: the inhibition is inactive: -6.12%.

As for `Cc1cc(C)cc(OP(C)(=O)Nc2ccccn2)c1` (stereo unspecified), the inhibition is inactive: -0.75%.

Consider `CP(=O)(Nc1cccc(Br)c1)Oc1ccccc1` (stereo unspecified), for which the inhibition was inactive: 2.89%.

As to `CCOP(=O)(Nc1cccc2ccccc12)OCC`, the inhibition was inactive: -7.21%.

`COc1cc(C(=O)NCC2(N3CCOCC3)CCCCC2)cc(Cl)c1OC(C)C`: the inhibition is inactive: 0.06%.

Turning to `CCOC(=O)c1ccc(NP(C)(=O)Oc2cc(C)cc(C)c2)cc1` (stereo unspecified), the inhibition was inactive: -13.8%.

As to `Cc1cc(C)cc(OP(C)(=O)Nc2ccc(C)cc2C)c1` (stereo unspecified), the inhibition was inactive: 0.91%.

In the case of `Cc1cccc(OCC(=O)OC2CN3CCC2CC3)c1` (stereo unspecified), the inhibition was inactive: -2.92%.

For `Cc1nc2ccc3ccccc3c2s1.O=[N+]([O-])c1cc([N+](=O)[O-])c(O)c([N+](=O)[O-])c1`, the inhibition was inactive: -10.4%.

Take `CC1(CBr)Cn2c(nc3ccccc3c2=O)S1` (stereo unspecified): the inhibition is inactive: -4.47%.

`CC(C)/C=N\N=C(\N)N[N+](=O)[O-]`: the inhibition was inactive: -3.98%.

As to `O=[N+]([O-])c1cc([N+](=O)[O-])c(-n2nnc3ccccc32)c([N+](=O)[O-])c1`, the inhibition was inactive: 3.7%.

In the case of `O=P1(Nc2ccccn2)COc2ccccc2OC1`, the inhibition was inactive: 10.8%.

Consider `Clc1n[nH]nc1-c1nn[nH][15n]1`, for which the inhibition is inactive: -3.01%.

For the compound `COc1ccccc1OP(C)(=O)Nc1c(C)cccc1C` (stereo unspecified), the inhibition is inactive: 0.15%.

On to `CN1CCCCC1COC(=O)C1(O)c2ccccc2CCc2ccccc21` (stereo unspecified), for which the inhibition was inactive: 8.93%.

Turning to `O=P1(Nc2ncccn2)COc2ccccc2OC1`, the inhibition is inactive: -3%.

Regarding `Cc1ccc(OCC(=O)OC2CN3CCC2CC3)cc1` (stereo unspecified), the inhibition was inactive: -2.16%.

For `O=P1(Nc2ccc(Br)cn2)COc2ccccc2OC1`, the inhibition was inactive: -0.16%.

Turning to `CCCOc1ccc(NP(C)(=O)Oc2ccc(Cl)cc2)cc1` (stereo unspecified), the inhibition is inactive: -0.55%.

`CP(=O)(Nc1ccc(SC(F)(F)F)cc1)Oc1ccccc1` (stereo unspecified): the inhibition is inactive: -8.72%.

As for `COc1cc(C2NCCC3(OCCO3)C2(C)C)cc(OC)c1OC.O=[N+]([O-])c1cc([N+](=O)[O-])c(O)c([N+](=O)[O-])c1` (stereo unspecified), the inhibition was inactive: 0.38%.

For the compound `CC1CCC(C(C)C)C(OP(=O)(Nc2ccccn2)c2ccccc2)C1` (stereo unspecified), the inhibition is inactive: 7.36%.

With `Cc1nn(-c2ccccc2)c2c1P(=O)(N1CCOCC1)N(C)C(c1ccccc1)=N2` (stereo unspecified), the inhibition was inactive: -1.06%.

As for `CN(C)C1(CNC(=O)c2ccc(S(C)(=O)=O)cc2)CCCCC1`, the inhibition is inactive: -9.69%.

On to `CC(=O)NC(SC(=S)N(C)C)C(Cl)(Cl)Cl` (stereo unspecified), for which the inhibition is inactive: -7.97%.

Consider `O=[N+]([O-])c1cc([N+](=O)[O-])c(NCC2CCS(=O)(=O)C2)c([N+](=O)[O-])c1` (stereo unspecified), for which the inhibition was inactive: -3.68%.

Turning to `C(Cc1nn[nH]n1)Cc1nn[nH]n1`, the inhibition was inactive: -13.6%.

In the case of `O=C(OC1CN2CCC1CC2)c1cccc(Cl)c1` (stereo unspecified), the inhibition was inactive: 6.35%.

For the compound `COc1ccc(OP(C)(=O)Nc2cccc(Br)c2)cc1` (stereo unspecified), the inhibition was inactive: 0.31%.

With `O=P(Nc1ccccn1)(c1ccc(Br)cc1)c1ccc(Br)cc1`, the inhibition is inactive: 2.51%.

On to `CN(C)CCOC(=O)C(O)(c1ccccc1)C1CCCCC1` (stereo unspecified), for which the inhibition is inactive: -1.99%.

For `COc1ccc(NP(C)(=O)Oc2ccccc2OC)cc1` (stereo unspecified), the inhibition is inactive: -5.62%.

On to `CP(=O)(Nc1ccc2c(c1)OCCO2)Oc1ccccc1` (stereo unspecified), for which the inhibition was inactive: -6.05%.

`Cc1ccccc1NP(C)(=O)Nc1ccccc1C`: the inhibition is inactive: 6.58%.

Take `CC(C)C(=O)NC(Sc1ccccc1)C(Cl)(Cl)Cl` (stereo unspecified): the inhibition was inactive: -10.1%.

Take `O=P(Nc1nccs1)(c1ccccc1)c1ccccc1`: the inhibition is inactive: -3.81%.

On to `CCOP(C)(=S)SCC(=O)NC(C)(CC)C(=O)O` (stereo unspecified), for which the inhibition is inactive: -1.19%.

For the compound `c1nnnn1CCn1cnnn1`, the inhibition is inactive: 15.7%.

For `O=C(OCCN1CCN(CCOCc2ccccc2)CC1)C(O)(c1ccccc1)c1ccccc1`, the inhibition was inactive: -3.05%.

Consider `CC(=O)Nc1ccc(Oc2c([N+](=O)[O-])cc([N+](=O)[O-])cc2[N+](=O)[O-])cc1`, for which the inhibition is inactive: -3.93%.

For `CCOc1ccc(C2=NCC(CBr)S2)cc1` (stereo unspecified), the inhibition was inactive: -2.71%.

Turning to `O=P1(Nc2nc3ccc(Cl)cc3s2)COc2ccccc2O1` (stereo unspecified), the inhibition was inactive: -6.69%.

As for `CP(=O)(Nc1ccccc1F)Oc1ccccc1` (stereo unspecified), the inhibition was inactive: 2.15%.

As to `CC(C)c1ccc(OP(C)(=O)Nc2ccc(SC(F)(F)F)cc2)cc1` (stereo unspecified), the inhibition was inactive: -5.35%.

Consider `CC(C)(C)C(=O)NC(Sc1ccccc1)C(Cl)(Cl)Cl` (stereo unspecified), for which the inhibition is inactive: -4.58%.

Regarding `Cc1ccc(OP(=O)(Nc2ccccn2)Oc2ccc(C)cc2)cc1`, the inhibition is inactive: -8.66%.

For `CC(=O)NC(SC(=S)N(CC(C)C)CC(C)C)C(Cl)(Cl)Cl` (stereo unspecified), the inhibition is inactive: -4.15%.

`COC(=O)c1cc2c(s1)N=C(c1ccccc1)N(C)P2(=O)N1CCOCC1` (stereo unspecified): the inhibition is inactive: 2.58%.

Take `CCN(CC)CCCOC(=O)C(O)(c1ccccc1)C1CCCCC1` (stereo unspecified): the inhibition is inactive: 5.39%.

For `CCC(=O)N1C2C3N(C(=O)CC)C1C1N(C(=O)CC)C(C(N1C(=O)CC)N3C(=O)CC)N2C(=O)CC`, the inhibition was inactive: -11.9%.

In the case of `CP(=O)(Nc1ccccc1)Oc1ccc(F)cc1` (stereo unspecified), the inhibition is inactive: -5.24%.

As to `O=c1c2cc([N+](=O)[O-])ccc2[nH]c2c([N+](=O)[O-])cc([N+](=O)[O-])cc12`, the inhibition is inactive: -1.14%.

In the case of `CCNC(=S)/N=C(\N)N[N+](=O)[O-]`, the inhibition is inactive: 1.54%.

With `O=C(NC1CCS(=O)(=O)C1)NP(=S)(Oc1ccccc1)Oc1ccccc1` (stereo unspecified), the inhibition was inactive: 3.96%.

Regarding `CCOC(=O)NC(Sc1ccccc1)C(Cl)(Cl)Cl` (stereo unspecified), the inhibition was inactive: -14.8%.

For `c1ccc(-c2nn[nH]n2)c(-c2nn[nH]n2)c1`, the inhibition is inactive: -0.5%.

Regarding `CCOC(=O)c1ccc(NP(C)(=O)Oc2ccc(F)cc2)cc1` (stereo unspecified), the inhibition is inactive: -10.3%.
